## scFv variants of Ab-91 (heavy chain) against a SARS-CoV-2 spike peptide

Values reported by Engelhart et al. 2022, doi:10.1038/s41597-022-01779-4 (FLAb copy).

Antigen: PDVDLGDISGINAS, a 14-residue peptide of the SARS-CoV-2 spike HR2 region.

Ab-91 is the parent antibody, in scFv form: VL, then a (GGGGS)3 linker, then VH. The light chain is unchanged in all variants.
VL: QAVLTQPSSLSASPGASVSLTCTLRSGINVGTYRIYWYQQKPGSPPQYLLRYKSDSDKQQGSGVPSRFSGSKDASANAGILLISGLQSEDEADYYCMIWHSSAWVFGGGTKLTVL
VH: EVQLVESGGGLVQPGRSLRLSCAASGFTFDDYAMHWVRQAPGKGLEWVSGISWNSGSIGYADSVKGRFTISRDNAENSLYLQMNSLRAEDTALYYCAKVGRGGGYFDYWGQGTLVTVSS

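The starting antibody came from a phage panning campaign against this peptide. In library AAYL51, one, two or three CDR residues were substituted; doubles and triples were drawn at random. In AlphaSeq, yeast of one mating type display the scFv and yeast of the other type display the target. Mating (16 h, 30 °C) was followed by selection of diploids and sequencing of their barcodes. The ratio of observed to expected reads was calibrated, replicate by replicate, on BCL2-family standards whose Kd was known from biolayer interferometry. Mating was done three times.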

The parent's heavy chain CDRs are GFTFDDYAMH, GISWNSGSIGYADSVK, VGRGGGYFDY; each variant's own CDRs replace them letter for letter.
Scale: log10 of Kd in nM, estimated from mating counts; low values are strong binders.
Replicates are averaged; those with no signal do not enter the mean.
Where no diploid with the target was found in any replicate, the entry reads "nd": below detection, most likely a poor binder, though not proof of it.
As a blank, each scFv also met three strains without target: over library AAYL51, 21% of these pairings were detected, typically at 4.54 and seldom below 3.26.
For reference, the parent read 1.86 as the reference entry and 0.88 as a member of this library.

{"CDR-H1": "GFTFDDYAMH", "CDR-H2": "GISWPSGSIGYADSVK", "CDR-H3": "VGRGGGWEDY", "mean, log10 nM": "5.18", "seen in": "2/3"}
{"CDR-H1": "GFLFDDYAMH", "CDR-H2": "GYSWNSGSIGYADSVK", "CDR-H3": "VGRGFGYFDY", "mean, log10 nM": "5.11", "seen in": "1/3"}
{"CDR-H1": "GFTFDDYAML", "CDR-H2": "WISWNSGSIGYADSVK", "CDR-H3": "VGRIGGYFDY", "mean, log10 nM": "5.26", "seen in": "1/3"}
{"CDR-H1": "GFTEDDYAMH", "CDR-H2": "GISWNSGSIGYADGVK", "CDR-H3": "VGQGGGYFDY", "mean, log10 nM": "4.75", "seen in": "1/3"}
{"CDR-H1": "GFTFDDYAMH", "CDR-H2": "GISWNSGSIDYADSVK", "CDR-H3": "VGRGGVYFDY", "mean, log10 nM": "nd", "seen in": "0/3"}
{"CDR-H1": "GFTFDDNAMH", "CDR-H2": "GISWRSGSIGYADSVK", "CDR-H3": "VGRGGDYFDY", "mean, log10 nM": "3.19", "seen in": "1/3"}
{"CDR-H1": "GFTLDKYAMH", "CDR-H2": "GISWNSGSPGYADSVK", "CDR-H3": "VGRGGGYFDY", "mean, log10 nM": "5.12", "seen in": "1/3"}
{"CDR-H1": "GFTFDDYAMH", "CDR-H2": "GISWNSGSIGYHDSVP", "CDR-H3": "VGRGGGSFDY", "mean, log10 nM": "4.86", "seen in": "1/3"}
{"CDR-H1": "GFTFNDYAMH", "CDR-H2": "GISSNSGSIGYADSVK", "CDR-H3": "VGRGGGYRDY", "mean, log10 nM": "4.79", "seen in": "2/3"}
{"CDR-H1": "GFTDDDYAMH", "CDR-H2": "GHSWNSGSIGYADSVK", "CDR-H3": "VGRGGGYFDY", "mean, log10 nM": "3.86", "seen in": "2/3"}
{"CDR-H1": "GFTFDDYAML", "CDR-H2": "GISWNSHSIGYADSVK", "CDR-H3": "VGRGGGYYDY", "mean, log10 nM": "nd", "seen in": "0/3"}
{"CDR-H1": "GFIFLDYAMH", "CDR-H2": "GISWNSGSIGYADSVK", "CDR-H3": "VGRGGGYFRY", "mean, log10 nM": "nd", "seen in": "0/3"}
{"CDR-H1": "GFTFDDWARH", "CDR-H2": "GISWNSGSIGYGDSVK", "CDR-H3": "VGRGGGYFDY", "mean, log10 nM": "nd", "seen in": "0/3"}
{"CDR-H1": "GFTFGDYAMH", "CDR-H2": "GISWNSGSKGYADSVK", "CDR-H3": "VGRGGGYYDY", "mean, log10 nM": "3.26", "seen in": "3/3"}
{"CDR-H1": "GFTFDNYAMH", "CDR-H2": "GISWNHGSIGYADSVK", "CDR-H3": "VGRGGGYLDY", "mean, log10 nM": "nd", "seen in": "0/3"}
{"CDR-H1": "GFYFDDYAMH", "CDR-H2": "GISWNSGSIGYADSPK", "CDR-H3": "VGRGGGVFDY", "mean, log10 nM": "3.65", "seen in": "1/3"}
{"CDR-H1": "GFTFWDYWYH", "CDR-H2": "GISWNSGSIGYADSVK", "CDR-H3": "VGRGGGYFDY", "mean, log10 nM": "5.20", "seen in": "1/3"}
{"CDR-H1": "GFTFDCYEMH", "CDR-H2": "GISWNSASIGYADSVK", "CDR-H3": "VGRGGGYFDY", "mean, log10 nM": "nd", "seen in": "0/3"}
{"CDR-H1": "GFRFDDYAMH", "CDR-H2": "GISWNSGSIGYADSVK", "CDR-H3": "VGRGGGMFDE", "mean, log10 nM": "1.18", "seen in": "3/3"}
{"CDR-H1": "GFTFDDYAMH", "CDR-H2": "GIDWNSGSIPYADSVK", "CDR-H3": "VGRGGGYFTY", "mean, log10 nM": "nd", "seen in": "0/3"}
{"CDR-H1": "GFTFDDYAFH", "CDR-H2": "GISWNSGSIGYADSTK", "CDR-H3": "VGRGGGYFDY", "mean, log10 nM": "3.22", "seen in": "1/3"}
{"CDR-H1": "GFTFDDYAMH", "CDR-H2": "GFSLNSGSYGYADSVK", "CDR-H3": "VGRGGGYFDY", "mean, log10 nM": "3.51", "seen in": "2/3"}
{"CDR-H1": "GFTFDDYAMH", "CDR-H2": "GIYFNSGSIGYADCVK", "CDR-H3": "VGRGGGYFDY", "mean, log10 nM": "nd", "seen in": "0/3"}
{"CDR-H1": "GPTFDDYAMH", "CDR-H2": "GTSWNSGSIGYADSVK", "CDR-H3": "VGRGGGYFDY", "mean, log10 nM": "nd", "seen in": "0/3"}
{"CDR-H1": "GETWDDYAMH", "CDR-H2": "GISWNSSSIGYADSVK", "CDR-H3": "VGRGGGYFDY", "mean, log10 nM": "4.45", "seen in": "2/3"}
{"CDR-H1": "GATFDDYAMH", "CDR-H2": "GISWNSGSIGYADSVK", "CDR-H3": "VKRGGGYFDS", "mean, log10 nM": "4.62", "seen in": "3/3"}

The last 3 entries again:

CDR-H1	CDR-H2	CDR-H3	mean, log10 nM	seen in
GPTFDDYAMH	GTSWNSGSIGYADSVK	VGRGGGYFDY	nd	0/3
GETWDDYAMH	GISWNSSSIGYADSVK	VGRGGGYFDY	4.45	2/3
GATFDDYAMH	GISWNSGSIGYADSVK	VKRGGGYFDS	4.62	3/3